Read-outs that look alike come from different tables or passages of the source.
Legend:
Assay in all cases: biochemical
[1] = target: HLA-DR DRB1*15:01 (Homo sapiens, UniProt P01903+P01911); assay type: binding
[2] = target: T1, HLA-DP DPA1*01:03/DPB1*04:01 (Homo sapiens, UniProt P04440+P20036); assay type: binding
T1 sequence (P20036 29-260): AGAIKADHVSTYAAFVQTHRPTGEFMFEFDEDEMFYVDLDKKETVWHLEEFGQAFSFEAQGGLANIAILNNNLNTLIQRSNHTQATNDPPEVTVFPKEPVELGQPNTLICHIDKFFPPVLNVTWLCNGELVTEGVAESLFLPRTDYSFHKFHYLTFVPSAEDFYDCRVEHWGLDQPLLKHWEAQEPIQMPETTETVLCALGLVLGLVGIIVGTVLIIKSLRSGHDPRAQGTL
T1 sequence (P04440 30-258): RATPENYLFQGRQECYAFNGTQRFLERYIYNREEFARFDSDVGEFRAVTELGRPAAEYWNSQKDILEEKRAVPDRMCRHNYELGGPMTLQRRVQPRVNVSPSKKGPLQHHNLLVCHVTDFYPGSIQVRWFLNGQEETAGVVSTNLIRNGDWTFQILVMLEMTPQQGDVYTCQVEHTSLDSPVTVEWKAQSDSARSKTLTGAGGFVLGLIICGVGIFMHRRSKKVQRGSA

Chains of the proteins cited; added tags and fusions are not shown. Residues count along the entry.
UniProt P01903, 26-254: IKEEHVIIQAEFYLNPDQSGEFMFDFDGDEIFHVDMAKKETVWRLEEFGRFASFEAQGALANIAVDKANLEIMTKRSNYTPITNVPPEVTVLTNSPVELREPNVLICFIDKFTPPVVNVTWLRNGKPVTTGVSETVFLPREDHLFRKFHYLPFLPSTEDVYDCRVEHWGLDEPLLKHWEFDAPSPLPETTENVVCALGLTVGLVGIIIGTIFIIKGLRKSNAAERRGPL
UniProt P01911, 30-266: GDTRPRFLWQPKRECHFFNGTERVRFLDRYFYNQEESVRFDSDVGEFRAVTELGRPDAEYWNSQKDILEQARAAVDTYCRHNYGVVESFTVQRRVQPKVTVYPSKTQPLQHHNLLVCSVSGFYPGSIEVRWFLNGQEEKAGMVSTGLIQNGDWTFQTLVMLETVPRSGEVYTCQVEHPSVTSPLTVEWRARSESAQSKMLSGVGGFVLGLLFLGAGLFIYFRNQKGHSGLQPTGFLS
UniProt P01920, 33-261: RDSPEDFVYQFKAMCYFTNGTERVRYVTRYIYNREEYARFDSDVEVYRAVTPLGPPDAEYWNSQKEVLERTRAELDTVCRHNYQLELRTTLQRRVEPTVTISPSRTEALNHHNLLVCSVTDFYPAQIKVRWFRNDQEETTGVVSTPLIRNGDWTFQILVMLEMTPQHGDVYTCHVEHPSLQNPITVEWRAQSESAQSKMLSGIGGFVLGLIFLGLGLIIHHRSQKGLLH
UniProt Q30154, 30-266: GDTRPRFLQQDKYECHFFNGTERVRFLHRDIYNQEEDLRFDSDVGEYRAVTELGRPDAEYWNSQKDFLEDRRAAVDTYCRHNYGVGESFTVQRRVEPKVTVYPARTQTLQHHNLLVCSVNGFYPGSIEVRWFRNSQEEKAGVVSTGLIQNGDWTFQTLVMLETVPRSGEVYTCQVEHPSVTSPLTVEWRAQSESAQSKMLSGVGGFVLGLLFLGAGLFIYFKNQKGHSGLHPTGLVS
UniProt P79483, 30-266: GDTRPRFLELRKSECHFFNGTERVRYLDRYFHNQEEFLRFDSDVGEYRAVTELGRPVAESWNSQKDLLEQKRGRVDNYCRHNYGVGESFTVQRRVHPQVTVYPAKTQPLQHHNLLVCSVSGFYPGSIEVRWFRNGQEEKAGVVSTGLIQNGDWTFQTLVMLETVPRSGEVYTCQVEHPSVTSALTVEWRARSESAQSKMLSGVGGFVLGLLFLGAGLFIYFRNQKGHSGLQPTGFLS

[3] = target: HLA-DQ DQA1*05:01/DQB1*03:01 (Homo sapiens, UniProt P01909+P01920)
[4] = target: HLA-DR DRB5*01:01 (Homo sapiens, UniProt P01903+Q30154); assay type: binding
[5] = target: HLA-DR DRB3*01:01 (Homo sapiens, UniProt P01903+P79483); assay type: binding

Row | Compound | IC50 [1] | IC50 [2] | IC50 [3] | IC50 ([4]; read-out: Binding capacity/IC50 (nM) DRB5*01:01) | IC50 [5] | IC50 [4]
1 | CSCC[C@H](NC(=O)[C@@H]1CCCN1C(=O)[C@H](CCCNC(=N)N)NC(=O)[C@H](CC(C)C)NC(=O)[C@@H]1CCCN1C(=O)[C@@H](NC(=O)[C@H](CCC(N)=O)NC(=O)[C@@H]1CCCN1C(=O)[C@H](CCCNC(=N)N)NC(=O)[C@@H](NC(=O)[C@@H]1CCCN1C(=O)[C@H](Cc1ccccc1)NC(=O)CN)C(C)C)C(C)C)C(=O)N[C@H](C(=O)N[C@@H](Cc1ccc(O)cc1)C(=O)N[C@@H](CCCCN)C(=O)NCC(=O)N[C@@H](C)C(=O)N[C@@H](Cc1ccccc1)C(=O)N[C@@H](CC(=O)O)C(=O)N[C@@H](CC(C)C)C(N)=O)[C@@H](C)O [nef(67-87)] | 303 nM | 1510 nM | 4340 nM | – | – | –
2 | CC[C@H](C)[C@H](NC(=O)[C@H](C)NC(=O)[C@H](CCC(N)=O)NC(=O)[C@H](Cc1c[nH]cn1)NC(=O)[C@@H](NC(=O)[C@H](CCSC)NC(=O)[C@H](CCC(N)=O)NC(=O)CNC(=O)[C@H](CCC(N)=O)NC(=O)[C@H](CC(C)C)NC(=O)[C@H](CC(N)=O)NC(=O)[C@H](CCC(N)=O)NC(=O)[C@@H](NC(=O)[C@@H](NC(=O)[C@@H]1CCCN1C(=O)[C@H](Cc1ccc(O)cc1)NC(=O)[C@@H](N)CC(N)=O)[C@@H](C)CC)C(C)C)C(C)C)C(=O)N[C@@H](CO)C(=O)N1CCC[C@H]1C(=O)N[C@@H](CCCNC(=N)N)C(N)=O [p17(131-132)/p24(1-18)] | – | – | 3350 nM | 547 nM | – | –
3 | CC[C@H](C)[C@H](NC(=O)[C@H](CCC(=O)O)NC(=O)CN)C(=O)N[C@@H](Cc1ccc(O)cc1)C(=O)N[C@@H](CCCCN)C(=O)N[C@@H](CCCNC(=N)N)C(=O)N[C@@H](Cc1c[nH]c2ccccc12)C(=O)N[C@H](C(=O)N[C@H](C(=O)N[C@@H](CC(C)C)C(=O)NCC(=O)N[C@@H](CC(C)C)C(=O)N[C@@H](CC(N)=O)C(=O)N[C@@H](CCCCN)C(=O)N[C@H](C(=O)N[C@H](C(=O)N[C@@H](CCCNC(=N)N)C(=O)N[C@@H](CCSC)C(=O)N[C@@H](Cc1ccc(O)cc1)C(N)=O)C(C)C)[C@@H](C)CC)[C@@H](C)CC)[C@@H](C)CC [p24(127-145)] | 17 nM | 3150 nM | 6230 nM | – | 333 nM | –
4 | CC[C@H](C)[C@H](NC(=O)[C@@H](NC(=O)[C@H](CCC(=O)O)NC(=O)[C@@H]1CCCN1C(=O)[C@@H](N)CO)C(C)C)C(=O)N1CCC[C@H]1C(=O)N[C@@H](CCSC)C(=O)N[C@@H](Cc1ccccc1)C(=O)N[C@@H](CO)C(=O)N[C@@H](C)C(=O)N[C@@H](CC(C)C)C(=O)N[C@@H](CO)C(=O)N[C@@H](CCC(=O)O)C(=O)NCC(=O)N[C@@H](C)C(=O)N[C@H](C(N)=O)[C@@H](C)O [p24(33-48)] | – | 4150 nM | 863 nM | – | 8780 nM | 112 nM
5 | CC[C@H](C)[C@H](NC(=O)CNC(=O)[C@H](CCCCN)NC(=O)[C@H](Cc1c[nH]cn1)NC(=O)[C@H](C)NC(=O)[C@@H]1CCCN1C(=O)[C@@H](NC(=O)[C@H](Cc1c[nH]c2ccccc12)NC(=O)[C@H](CO)NC(=O)[C@H](CC(C)C)NC(=O)[C@H](Cc1ccc(O)cc1)NC(=O)[C@@H](NC(=O)[C@H](CCCCN)NC(=O)[C@H](CCC(=O)O)NC(=O)[C@@H](N)CCCCN)C(C)C)C(C)C)C(=O)NCC(=O)NCC(=O)N[C@@H](CC(N)=O)C(=O)N[C@@H](CCC(=O)O)C(N)=O [RT(528-546)] | – | – | 681 nM | – | – | –
6 | CC(C)C[C@H](NC(=O)[C@H](CO)NC(=O)[C@H](CCCNC(=N)N)NC(=O)[C@H](CC(C)C)NC(=O)[C@H](CCC(=O)O)NC(=O)[C@H](CCC(=O)O)NC(=O)[C@@H](N)CO)C(=O)N[C@@H](Cc1ccc(O)cc1)C(=O)N[C@@H](CC(N)=O)C(=O)N[C@H](C(=O)N[C@H](C(=O)N[C@@H](C)C(=O)N[C@H](C(=O)N[C@@H](CC(C)C)C(=O)N[C@@H](Cc1ccc(O)cc1)C(=O)N[C@@H](CS)C(=O)N[C@H](C(=O)N[C@@H](Cc1c[nH]cn1)C(=O)N[C@@H](CCC(N)=O)C(N)=O)C(C)C)[C@@H](C)O)C(C)C)[C@@H](C)O [p17(72-90)] | – | – | 7230 nM | – | – | –
7 | CC(C)C[C@H](NC(=O)[C@H](CCCCN)NC(=O)[C@@H](NC(=O)[C@H](CC(C)C)NC(=O)[C@@H]1CCCN1C(=O)[C@@H]1CCCN1C(=O)[C@@H](NC(=O)[C@H](CC(N)=O)NC(=O)[C@@H](NC(=O)[C@H](Cc1ccccc1)NC(=O)[C@H](CCC(=O)O)NC(=O)[C@H](Cc1c[nH]c2ccccc12)NC(=O)[C@@H](N)CCC(=O)O)C(C)C)[C@@H](C)O)C(C)C)C(=O)N[C@@H](Cc1c[nH]c2ccccc12)C(=O)N[C@@H](Cc1ccc(O)cc1)C(N)=O [RT(413-427)] | – | – | 25500 nM | – | – | –
